# Biological target: Adenosine receptor A1 (Rattus norvegicus) (UniProt P25099)
# Assay: Displacement of [3H]CCPA from adenosine A1 receptor in rat brain cortical membrane at 25 uM
row,Activity [%],Structure (SMILES)
1,46,Cn1c(=O)c2c(nc3n2CCCN3CCc2ccc(O)cc2)n(C)c1=O
2,22,Cn1c(=O)c2c(nc3n2CCCN3CCc2ccccn2)n(C)c1=O
3,41,Cn1c(=O)c2c(nc3n2CCCN3CCc2c[nH]c3ccccc23)n(C)c1=O

# — ChEMBL document CHEMBL1137492, “Phenylethyl-substituted pyrimido[2,1-f]purinediones and related compounds: structure-activity relationships as adenosine A(1) and A(2A) receptor ligands” (Bioorg Med Chem, 2007)
